Experiments:
[1] = system: Gli-Luc/MEF cells (Smo); experiment: Gli-Luc/MEF assay (Shh-stimulated luciferase reporter under the Gli response element); details: read-out: Gli IC50, 48 hours
Method: The Gli-Luc/MEF cells obtained from Gli-Luc transgenic mice (Pfizer CoE, Genetically Modified Mice) contain a luciferase reporter gene under the control of the Gli response element. Luciferase activity stimulated with Sonic hedgehog ligand was inhibited by Smo inhibitors, and IC50 was subsequently calculated.
Plates were incubated at 37° C. and 5% CO2 overnight. On day two, cells were dosed with test compounds at a final concentration ranging from […] to 50 μM at a 3-time series dilution. Immediately after dosing cells with compounds, recombinant mouse sonic hedgehog (Shh, R&D Systems 464-SH) was added to a final concentration of 2 μg/mL. The cells were incubated with compounds and Shh for 48 hours at 37° C. and 5% CO2. Luciferase assays were conducted on Day 4 using the Bright-Glo Luciferase assay system (Promega E2620) according to Promega's protocol. Briefly, Bright-Glo luciferase reagent was made up and 25 uL were added to each well of the 384-well plate containing media. Plates were kept at room temperature for 5 minutes, and then read on an Envision Luminescence plate reader (Perkin-Elmer). IC50 of the inhibition was calculated by using GraphPad Prism.

Protein sequences, listed by entry. Tags and fused reporters are not part of them. Residues count along the entry.
UniProt Q99835, 181-787 limits assumed: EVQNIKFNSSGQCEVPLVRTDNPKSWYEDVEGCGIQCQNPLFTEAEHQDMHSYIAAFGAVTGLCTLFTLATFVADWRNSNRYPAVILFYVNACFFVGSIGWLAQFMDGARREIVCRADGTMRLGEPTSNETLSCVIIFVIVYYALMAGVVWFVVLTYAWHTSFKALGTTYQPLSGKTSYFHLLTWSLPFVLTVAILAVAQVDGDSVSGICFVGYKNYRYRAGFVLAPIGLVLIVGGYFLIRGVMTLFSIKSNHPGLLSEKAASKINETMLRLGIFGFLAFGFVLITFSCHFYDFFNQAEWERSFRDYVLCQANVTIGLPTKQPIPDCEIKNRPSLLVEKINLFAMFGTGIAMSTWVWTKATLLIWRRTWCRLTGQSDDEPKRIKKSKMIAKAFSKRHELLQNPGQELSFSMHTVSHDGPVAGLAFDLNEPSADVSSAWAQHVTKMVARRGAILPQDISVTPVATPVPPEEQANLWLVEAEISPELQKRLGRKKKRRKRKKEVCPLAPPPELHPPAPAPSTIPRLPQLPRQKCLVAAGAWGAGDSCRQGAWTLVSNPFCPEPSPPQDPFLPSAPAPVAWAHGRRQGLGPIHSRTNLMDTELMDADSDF

[2] = target: human Smo (amino acids 181-787) (Homo sapiens, UniProt Q99835); experiment: Smo radioligand competition binding assay (displacement of 3H-PF-03451358 from HEK293 membranes)
Method: Membranes were prepared from a stable cell line created in HEK293FlpIn-TetR cells (Invitrogen) using FIp recombinase-mediated insertion of the pSecTag-FRT/V5-His vector containing a cDNA encoding amino acids 181-787 of human Smo fused to the murine lgk leader sequence to produce a cell surface expressed Smo 181-781 protein. Hygromycin-resistant clones were obtained and stained for LacZ expression (no expression indicates a correct knock-in of my fusion cDNA). LacZ-negative cells were analyzed for binding tritiated Smo antagonist PF-03451358. For membrane preparation, the HEK293 cells expressing Smo 181-781 were grown to 90% confluence in nine to fifteen 245 mm×245 mm×22 mm dishes, washed with Dulbecco's PBS (15 ml per dish) and harvested via scraping in 10 ml of DPBS. The cells were collected and centrifuged at 1500 rpm (400×g) for 10 min at 4° C. […] Total protein in the membrane preparation is determined using the Pierce BCA protein assay (Pierce Chemical).
For the binding competition assay, 100 μl of Assay Buffer is added to all the wells of a 96 well GF/B filter plate (Millipore MultiScreen-HTS-FB cat# MSFBN6B50) for 10 minutes to pre-wet the filter prior to evacuation of the buffer (8 inches Hg for 8 seconds). […] The plate is counted in a TopCount scintillation counter (Perkin Elmer). […]

**Q.** What does the source list for `Cn1c(-c2cc(N3CCC4(CC3)CC(O)CCO4)ncc2Cl)nc2ccccc21` (stereo not drawn) [Example A-204, 9-[5-chloro-4-(1-methyl-1H-benzimidazol-2-yl)pyridin-2-yl]-1-oxa-9-azaspiro[5.5]undecan-4-ol]?
**A.** IC50 [1]: 0.01 µM; SMO % inh. @ 0.05 μM ([2]; 0.05 μM test compound, displacement of 3H-PF-03451358): 94%; IC50 ([2]; read-out: SMO IC50, radioligand competition binding): 0.02 µM

Source: patent publication US20120157471A1, “BENZIMIDAZOLE DERIVATIVES” (PFIZER INC., priority 2009, published 2012)
